Published antibiotic growth screens (doi:10.1038/s41589-023-01349-8)
The other results are listed elsewhere or left out.

tested on: A. baumannii ATCC 17978; experiment: relative growth (fraction of control); higher = less inhibition; settings: 50 µM

Compound	relative growth
N[C@@H](Cc1cc(I)c(Oc2ccc(O)c(I)c2)c(I)c1)C(=O)[O-].[Na+] [LIOTHYRONINE (L- isomer) SODIUM]	1.56
COC(=O)[C@H]1CCc2nc[nH]c2C1	1.03
COCC#Cc1ccc2c(c1)O[C@H](CN(C)C(=O)C1CCCCC1)[C@@H](C)CN([C@H](C)CO)S2(=O)=O	1.02
NC(CSCSCC(N)C(=O)O)C(=O)O (centres undefined)	0.959
OCc1ccc(-c2cccs2)cc1	0.932
O=C(C[C@@H]1CC[C@H]2[C@@H](COC[C@@H](O)CN2C(=O)C2CC2)O1)NCc1ccncc1	1.11
COC(=O)C[C@@H]1CC[C@H]2[C@@H](COC[C@H](O)CN2S(=O)(=O)c2ccccc2C)O1	0.991
Cn1nccc1NC(=O)COCC(=O)O	0.949
C[C@H](CO)NS(=O)(=O)c1ccnn1C	1.14
COc1ccccc1-c1ccc2c(c1)O[C@H](CN(C)CC1CCOCC1)[C@H](C)CN([C@H](C)CO)S2(=O)=O	0.921
COCC#Cc1ccc2c(c1)O[C@@H](CN(C)Cc1ccccc1F)[C@@H](C)CN([C@@H](C)CO)S2(=O)=O	0.73
Cc1ccc(S[C@]2(C(=O)NCC(F)(F)F)CC(=O)N(Cc3ccccc3C(F)(F)F)[C@@H]2c2ccc(CO)cc2)cc1	0.959
CC(C)(C)Nc1nc(=O)[nH]c(=O)[nH]1	1.05
CC(C)(C)c1ccc2c(c1)O[C@H](C(=O)N/N=C/c1ccc[nH]1)CO2.CC(C)(C)c1ccc2c(c1)O[C@H](C(=O)N/N=C\c1ccc[nH]1)CO2	1.09
C[C@@H]1CN([C@@H](C)CO)S(=O)(=O)c2ccc(-c3cncnc3)cc2O[C@@H]1CN(C)C(=O)Cc1cccnc1	0.903
CCC(=O)Nc1ccc(C)cc1C	0.982
CC(C)NCC(O)c1cc(O)cc(O)c1 (centres undefined)	0.991
O=c1nc[nH]c2n[nH]cc12	1.05
O=C(C[C@@H]1CC[C@@H]2[C@H](COC[C@H](O)CN2S(=O)(=O)c2cccc(Cl)c2)O1)NCCCN1CCOCC1	0.871
O=C(C[C@@H]1CC[C@H](NC(=O)CN2CCOCC2)[C@H](CO)O1)NCCc1ccncc1	1.22
COc1ccc(S(=O)(=O)N2C[C@@H](O)COC[C@@H]3O[C@H](CC(=O)NCCCN(C)C)CC[C@H]32)cc1	1.11
O=C(O)CN(CCN(CC(=O)O)CC(=O)O)CCN(CC(=O)O)CC(=O)O	0.878
COc1ccc(-c2cc(=O)c3c(OC)c(OC)c(OC)cc3o2)cc1OC	0.94

Compound	relative growth
COc1ccc([C@@H]([C@H](Cc2ccccc2)OC(C)=O)N2Cc3c(noc3[C@@H](O)c3ccccc3)[C@@H]2Cc2ccccc2)cc1	1.1
CO[C@H]1CN(C)C(=O)c2cc(NS(C)(=O)=O)ccc2OC[C@H](C)N(C(=O)CN(C)C)C[C@H]1C	1
CC(C)NCC(O)COc1cccc2[nH]c3ccccc3c12 (centres undefined)	0.923
Cc1n[nH]c(NN2CCOCC2)nc1=O	1.05
Cc1noc(C)c1S(=O)(=O)NC(C)C	0.956
C[C@H](CO)N1C[C@H](C)[C@H](CN(C)C(=O)Nc2cc(F)ccc2F)Oc2ncc(C#CCN(C)C)cc2C1=O	1.07
Cn1cnc([N+](=O)[O-])c1Sc1[nH]cnc2ncnc1-2	1.26
COc1ccc2c(=O)cc(-c3ccccc3)oc2c1OC	1.16
CC[C@@H](CO)NCCN[C@@H](CC)CO.Cl.Cl	1.12
CCNC(=O)C[C@H]1CC[C@H]2[C@@H](COC[C@H](O)CN2C(=O)Nc2c(C)noc2C)O1	1.09
CC(C)(C)c1n[nH]c(C(C)(C)C)c1Cc1c(F)cccc1Cl	0.855
CC12CCC(=O)C=C1CCC1C2[C@@H](O)CC2(C)C1CC[C@]2(O)C(=O)COP(=O)([O-])[O-].CC[NH+](CC)CC.CC[NH+](CC)CC (some centres undefined)	0.934
CCC(CCC(C)[C@H]1CCC2C3CC=C4C[C@@H](O)CC[C@]4(C)C3CC[C@@]21C)C(C)C (stereo partly drawn) [beta-SITOSTEROL]	0.946
O=c1ccc(=O)n(-c2ccccc2)[nH]1	1.12
COc1ccc2c(c1)O[C@H]1c3ccc(OC)cc3OC[C@@H]21	1.06
CC(C)(C)c1csc(-c2ccc(-c3cccs3)s2)n1	0.975
COc1cccc(CNC(=O)C[C@@H]2C=C[C@@H](NC(=O)C3CCOCC3)[C@H](CO)O2)c1	1.03
CCCC[C@@H](CC)COC(=O)/C=C/c1ccc(OC)cc1	1.18
OC[C@@H](O)[C@@H](O[C@@H]1O[C@H](CO)[C@@H](O)[C@H](O)[C@H]1O)[C@H](O)[C@@H](O)CO	0.864
COc1ccc2nc3cc(Cl)ccc3c(Nc3cc(CN4CCCC4)c(O)c(CN4CCCC4)c3)c2n1.O=P(O)(O)O.O=P(O)(O)O.O=P(O)(O)O.O=P(O)(O)O	1.15
COCC#Cc1ccc2c(c1)O[C@H](CN(C)C(=O)C1CCOCC1)[C@@H](C)CN([C@@H](C)CO)S2(=O)=O	1.09
COc1ccc([Si](C)(C)[C@H]2[C@H](CCOC(=O)NCCCCCC(=O)NO)O[C@]3(C(=O)N(Cc4ccccc4)c4ccc(NC(=O)[C@@H](C)OC(=O)NCCCCCC(=O)NO)cc43)[C@@H]2C)cc1	0.873
O=C(CCCCC(=O)N/N=C/c1cc(I)cc(I)c1O)NO	0.585

Compound	relative growth
CCN(CC)CCNC(=O)c1ccc(NC(C)=O)cc1.Cl	1.21
CC(C)[C@H](N)C(=O)O	1.04
COc1ccc(-c2cc(=O)c3c(O)cc(OC)cc3o2)cc1	1.06
CC(=O)S[C@@H]1CC2=CC(=O)CC[C@]2(C)[C@H]2CC[C@@]3(C)[C@@H](CC[C@@]34CCC(=O)O4)C12 (some centres undefined)	1.12
O=C(CN1CCOCC1)NCC[C@H]1CC[C@@H](NS(=O)(=O)c2ccc(Cl)cc2)[C@H](CO)O1	1.06
O=C(C[C@@H]1C=C[C@H](NC(=O)c2ccc(F)cc2)[C@H](CO)O1)NCc1ccncn1	0.955
O=C(/C=C/C=C/c1ccc2c(c1)OCO2)N1CCCCC1	1.03
Cc1ccc(S(=O)(=O)N[C@H]2C=C[C@@H](CC(=O)NCCN3CCCCC3)O[C@H]2CO)cc1	1.09
C=C(C)/C=C1/C=CC(=O)C(C)=C1	0.919
CN(C)CCNc1cn[nH]c(=O)c1Cl	0.995
[N-]=[N+]=Nc1ccccc1[C@H]1OC(c2ccc(OCCCO)cc2)=N[C@@]1(CCS(=O)(=O)c1ccccc1)C(=O)N1CCCCC1	1.15
CCS(=O)(=O)Nc1ccc2c(c1)C(=O)N(C)C[C@H](OC)[C@@H](C)CN(C(=O)c1ccc3c(c1)OCO3)[C@H](C)CO2	1.1
Cc1ccc(-c2ccc3c(c2)O[C@@H](CN(C)C(=O)NC(C)C)[C@H](C)CN([C@@H](C)CO)S3(=O)=O)cc1	0.788
O=C(C[C@@H]1CC[C@@H]2[C@H](COC[C@H](O)CN2C(=O)Nc2cccc(F)c2)O1)NCCCN1CCOCC1	0.884
O=C(O)CCCCC1CCSS1 (centres undefined)	0.944
O=c1[nH]cc(Nc2ccccc2)c(=O)[nH]1	1.18
CC(=O)N(C)C[C@H]1Oc2cc(C#CCN(C)C)ccc2S(=O)(=O)N([C@H](C)CO)C[C@H]1C	1
CN1CCN(C(=O)C[C@@H]2CC[C@H](NC(=O)Cc3ccccn3)[C@@H](CO)O2)CC1	1.05
O=C(C[C@@H]1CC[C@H]2[C@@H](COC[C@H](O)CN2S(=O)(=O)c2ccccc2F)O1)NCc1ccccc1Cl	0.846
C[C@@H]1COC(=O)N1	1.04
CCN(CC)S(=O)(=O)c1ccc(C(=O)O)cc1	1.05
CCOc1ccc(NC(=O)CC(C)O)cc1 (centres undefined)	0.888
O=c1[nH]cc(/N=C/c2ccncc2)c(=O)[nH]1	1.13

Compound	relative growth
Cc1cc(-c2ccccc2)nc(-c2ccccc2)c1C	0.861
CN(C)C(=O)C[C@@H]1C=C[C@@H](NC(=O)C2CC2)[C@@H](CO)O1	1.01
O=C(NO)c1cccc(C(=O)N/N=C/c2cc(I)cc(I)c2O)c1	0.699
CO[C@H]1CN(C)C(=O)c2cc(NS(=O)(=O)CC(F)(F)F)ccc2OC[C@H](C)N(Cc2cccnc2)C[C@H]1C	0.92
CCCCc1nc(Cl)c(CO)n1Cc1ccc(-c2ccccc2-c2nnn[nH]2)cc1	0.986
C=CCCCCCCCCC(=O)O	1.04
COCCc1nc2c([nH]1)c(=O)n(C)c(=O)n2C	1.02
COc1ccc([Si](C)(C)[C@H]2[C@H](CCn3cc([C@H](O)c4ccccc4)nn3)O[C@@]3(C(=O)N(c4ccccc4)c4ccccc43)[C@@H]2C)cc1	1.18
O=c1occ(CO)c(O)c1CN1CCCCC1	1.01
COCc1cn(CC[C@H]2CC[C@@H](NC(=O)CCN3CCCCC3)[C@H](CO)O2)nn1	0.998
COc1c(O)cc2oc3cc(O)c(CC=C(C)C)c(O)c3c(=O)c2c1CC=C(C)C [alpha-MANGOSTIN]	1.03
NC(=O)c1cc[n+](CC2=C(C(=O)[O-])N3C(=O)C(NC(=O)C(c4ccccc4)S(=O)(=O)[O-])C3SC2)cc1.[Na+] (centres undefined)	0.903
COCC(=O)N1C[C@H](C)[C@@H](OC)CN(C)C(=O)c2cc(NC(=O)c3cc(C)on3)ccc2OC[C@H]1C	1
CC1(C)C[C@@H]2C(=O)CC[C@H]3O[C@]3(C)CC[C@H]21	0.906
COC(=O)/C=C/c1cn([C@H]2OC[C@@H](CO)[C@@H]2O)c(=O)[nH]c1=O	1.07
O=c1[nH]c2ccccc2c(=O)n1CCCO	0.93
CC1CCN(S(=O)(=O)c2c[nH]cn2)CC1	0.965
C[C@H](CO)N1C[C@H](C)[C@H](CN(C)C(=O)CN2CCOCC2)Oc2cc(C#Cc3cccc(F)c3)ccc2S1(=O)=O	1.04
Nc1nc(=O)c2c([nH]1)NCC(CNc1ccc(C(=O)N[C@@H](CCC(=O)[O-])C(=O)[O-])cc1)N2C=O.[Ca+2] (some centres undefined)	0.852
CN(C)CCCCNC(=O)[C@@H]1C[C@@H]2C(=O)N[C@@H](CCCC[N+](C)(C)C)C(=O)N2[C@@H]1c1ccc(O)cc1	0.963
